Binding of CDR-mutated scFvs to a peptide of the spike HR2 region

From the AlphaSeq antibody data of Li et al. 2023 (doi:10.1038/s41467-023-39022-2), copy in the FLAb collection.

The target is the same throughout: PDVDLGDISGINAS, from the HR2 region of SARS-CoV-2 spike.

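Phage display of a naive human antibody library on the peptide gave the parent. The variants were designed computationally from a first round of random CDR variants and then made and measured. Their group label is 14H_GPLM_HC (GPLM: also part of the Gaussian process libraries; HC: hill climbing; a sequence that several methods proposed may carry one label only). The assay is AlphaSeq: two haploid yeast populations carry antibody and antigen on their surface. Mating (16 h, 30 °C) was followed by selection of diploids and sequencing of their barcodes. Scores were corrected for input abundance and mapped to Kd with protein pairs of known affinity run in the same pool. Mating was done six times.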

Ab-14 is the parent antibody, in scFv form: VH, then three GGGGS repeats, then VL. The light chain is unchanged in all variants.
VH: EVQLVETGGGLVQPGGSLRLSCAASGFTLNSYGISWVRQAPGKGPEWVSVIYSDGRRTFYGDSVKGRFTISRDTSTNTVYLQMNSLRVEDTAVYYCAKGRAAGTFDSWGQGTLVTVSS
VL: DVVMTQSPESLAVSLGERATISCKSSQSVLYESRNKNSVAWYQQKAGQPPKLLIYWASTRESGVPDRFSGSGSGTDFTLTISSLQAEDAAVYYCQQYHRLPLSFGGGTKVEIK

Each variant's VH is given in full.
Scale: log10 of Kd in nM, estimated from mating counts; low values are strong binders.
A pair that was not seen in that replicate is written "n.d."; this usually means weak binding, but a binder can also be missed.
Background: pairings of all heavy chain designs with three empty control strains gave a value in 1% of cases (median 2.08, 5th percentile 0.84). Values in that range, when seen in few replicates, are hard to tell from nonspecific mating. The control count says in how many pairings with the empty strains this scFv gave a signal, with their mean in brackets.
Values of this round are not directly comparable with the first-round values of the same sequences.
Of ten entries with the parent sequence, four were seen in most replicates (averages 0.34 to 2.37), three in one and three in none, so single entries are noisy.
The authors averaged sequences with at least three values out of six and counted those with two or fewer as poor binders.

| # | VH | log10 Kd, replicates | empty controls |
|---|---|---|---|
| 1 | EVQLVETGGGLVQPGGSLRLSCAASGFTLNDYGISWVRQAPGKGPEWVSVIYSDGRRTFYGDSVKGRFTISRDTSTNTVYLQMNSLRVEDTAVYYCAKGRMAGTFDTWGQGTLVTVSS | n.d. / n.d. / n.d. / n.d. / n.d. / n.d. | 0 of 18 |
| 2 | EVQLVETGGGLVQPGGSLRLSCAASGFTLNSYGISWVRQAPGKGPEWVSVIYSDGRRTFYSDSVKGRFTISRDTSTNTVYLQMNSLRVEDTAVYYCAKGRAGGTFDQWGQGTLVTVSS | n.d. / n.d. / n.d. / n.d. / n.d. / n.d. | 0 of 18 |
| 3 | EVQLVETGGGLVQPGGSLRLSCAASGFTLNEYGISWVRQAPGKGPEWVSVIYSDGRRTFYQDSVKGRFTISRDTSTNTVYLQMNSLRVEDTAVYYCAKGRTAGTFDSWGQGTLVTVSS | n.d. / n.d. / -0.34 / 0.81 / -0.05 / n.d. | 0 of 18 |
| 4 | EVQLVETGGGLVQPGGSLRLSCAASGFTLNEYGISWVRQAPGKGPEWVSVIYSDGRRTFYSDSVKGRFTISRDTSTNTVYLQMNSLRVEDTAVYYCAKGRAAGTFTSWGQGTLVTVSS | 1.03 / 2.11 / n.d. / 1.62 / 2.23 / 2.55 | 1 of 18 (1.48) |
| 5 | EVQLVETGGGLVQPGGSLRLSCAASGFTLNDYGISWVRQAPGKGPEWVSVIYSDGRRTFYTDSVKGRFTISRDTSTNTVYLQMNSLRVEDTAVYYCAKGRAAGTFISWGQGTLVTVSS | n.d. / n.d. / n.d. / n.d. / n.d. / n.d. | 0 of 18 |
| 6 | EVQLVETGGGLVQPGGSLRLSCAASGFTLNEYGISWVRQAPGKGPEWVSVIYSDGRRTFYGDSVKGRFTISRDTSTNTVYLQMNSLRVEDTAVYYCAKGREAVTFDQWGQGTLVTVSS | n.d. / n.d. / n.d. / n.d. / n.d. / n.d. | 0 of 18 |
| 7 | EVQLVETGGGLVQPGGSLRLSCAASGFTINSYGISWVRQAPGKGPEWVSVIYSDGRRTFYSDSVKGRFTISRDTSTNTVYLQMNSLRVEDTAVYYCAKGRQAGTFDSWGQGTLVTVSS | 0.94 / 0.40 / 1.81 / 1.03 / 1.18 / 1.56 | 0 of 18 |
| 8 | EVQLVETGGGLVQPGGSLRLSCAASGFTLESYGISWVRQAPGKGPEWVSVIYADGRRTFYGDSVKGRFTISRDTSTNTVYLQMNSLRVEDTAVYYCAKGRAAGTFLSWGQGTLVTVSS | n.d. / n.d. / n.d. / n.d. / n.d. / n.d. | 0 of 18 |
| 9 | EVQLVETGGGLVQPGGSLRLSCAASGFTLNEYGISWVRQAPGKGPEWVSVIYSDGRRTFYSDSVKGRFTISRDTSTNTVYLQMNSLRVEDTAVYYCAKGRSAGTFDSWGQGTLVTVSS | 1.30 / 0.99 / 0.62 / 0.79 / 0.75 / 0.69 | 0 of 18 |
| 10 | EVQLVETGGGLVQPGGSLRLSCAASGFTLNEYGISWVRQAPGKGPEWVSVIYSDGWRTFYTDSVKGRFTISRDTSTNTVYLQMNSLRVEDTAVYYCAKGRAAGTFDSWGQGTLVTVSS | 0.14 / n.d. / -0.85 / n.d. / n.d. / 0.24 | 0 of 18 |
| 11 | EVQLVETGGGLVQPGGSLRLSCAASGFTLNSYGISWVRQAPGKGPEWVSVIYADGRRTFYGDDVKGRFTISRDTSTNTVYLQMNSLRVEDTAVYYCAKGRTAGTFDSWGQGTLVTVSS | 0.22 / 0.72 / -0.13 / -0.22 / 0.64 / 0.08 | 1 of 18 (1.09) |
| 12 | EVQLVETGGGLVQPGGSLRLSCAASGFDLNSYGISWVRQAPGKGPEWVSVIYSDGRRTFYVDSVKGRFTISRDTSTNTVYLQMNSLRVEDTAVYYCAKGRNAGTFDSWGQGTLVTVSS | 0.73 / 0.75 / 0.34 / 0.32 / 0.39 / 0.43 | 1 of 18 (2.11) |
| 13 | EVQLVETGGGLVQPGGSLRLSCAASGFTLNEYGISWVRQAPGKGPEWVSVIYSDGKRTFYGDSVKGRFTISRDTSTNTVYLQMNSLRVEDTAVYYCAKGRTAGTFISWGQGTLVTVSS | n.d. / n.d. / n.d. / 2.32 / n.d. / n.d. | 0 of 18 |
| 14 | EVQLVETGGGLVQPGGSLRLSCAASGFTLNEYGISWVRQAPGKGPEWVSVIYSDGQRTFYGDSVKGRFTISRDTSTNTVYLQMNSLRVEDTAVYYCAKGRAAVTFDQWGQGTLVTVSS | n.d. / n.d. / n.d. / n.d. / n.d. / n.d. | 0 of 18 |
| 15 | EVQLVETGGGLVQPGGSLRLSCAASGFTLNSYGISWVRQAPGKGPEWVSVIYSDGVRTFYSDSVKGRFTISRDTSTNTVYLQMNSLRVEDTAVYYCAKGREAGTFDSWGQGTLVTVSS | 0.94 / 0.70 / 0.48 / 0.46 / 1.39 / 1.45 | 0 of 18 |
| 16 | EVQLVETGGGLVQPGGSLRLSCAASGFTLNEYGISWVRQAPGKGPEWVSVIYSDGRRTFYGDSVKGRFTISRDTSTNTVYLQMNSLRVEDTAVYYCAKGRAAVTFDFWGQGTLVTVSS | n.d. / n.d. / n.d. / n.d. / n.d. / n.d. | 0 of 18 |
| 17 | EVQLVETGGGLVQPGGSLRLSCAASGFTLNEYGISWVRQAPGKGPEWVSVIYSDGRRTFYSDSVKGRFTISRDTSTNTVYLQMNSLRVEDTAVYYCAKGRAGGTFDTWGQGTLVTVSS | n.d. / -0.55 / n.d. / n.d. / 0.34 / n.d. | 0 of 18 |
| 18 | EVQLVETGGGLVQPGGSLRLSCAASGFTLNDYGISWVRQAPGKGPEWVSVIYSDGRRTEYGDSVKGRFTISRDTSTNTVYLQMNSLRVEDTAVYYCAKGRAAGTFDSWGQGTLVTVSS | 1.40 / 1.69 / 1.39 / 1.21 / 0.83 / 1.52 | 0 of 18 |
| 19 | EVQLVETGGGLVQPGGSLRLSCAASGFTLNEYGISWVRQAPGKGPEWVSVIYSDGRRTFYKDSVKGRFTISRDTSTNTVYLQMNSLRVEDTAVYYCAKGRIAGTFDSWGQGTLVTVSS | -0.06 / -0.20 / -0.44 / -0.08 / -0.51 / -0.77 | 0 of 18 |
| 20 | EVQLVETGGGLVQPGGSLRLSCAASGFDLNSYGISWVRQAPGKGPEWVSVIYSDGRRTFYGDSVKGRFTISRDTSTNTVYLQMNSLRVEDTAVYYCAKGRTAGSFWSWGQGTLVTVSS | n.d. / n.d. / n.d. / n.d. / n.d. / n.d. | 0 of 18 |